Reference: patent US11401278B2, “Macrocyclic indole derivatives” (The Broad Institute, Inc., priority 2017, dated 2022)

Chains of the proteins cited; added tags and fusions are not shown.
UniProt Q07820, whole entry: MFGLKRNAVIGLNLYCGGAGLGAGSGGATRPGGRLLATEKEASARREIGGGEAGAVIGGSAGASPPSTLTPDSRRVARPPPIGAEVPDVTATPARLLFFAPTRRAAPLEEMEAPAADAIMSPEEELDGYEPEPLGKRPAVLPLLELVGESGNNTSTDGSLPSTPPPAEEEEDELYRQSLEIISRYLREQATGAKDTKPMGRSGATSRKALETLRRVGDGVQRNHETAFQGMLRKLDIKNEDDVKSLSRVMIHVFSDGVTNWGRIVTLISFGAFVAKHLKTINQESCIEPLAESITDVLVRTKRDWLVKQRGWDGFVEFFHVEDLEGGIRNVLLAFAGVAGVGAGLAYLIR

Molecular target: MCL1 protein (Homo sapiens (Human), UniProt Q07820)
Assay: PIxEL: protein-protein interaction in permeabilized cells by ELISA (Assay 5)
Settings: read-out: PIXEL [M] (median) IC50, permeabilized RKO cells, Biotin-BIM peptide 0.2 μM, serum free
Procedure: PI×EL: Protein-Protein Interaction in Permeabilized Cells by ELISA
Most MCL1 protein molecules are localized at the mitochondria outer membrane and sequester pro-apoptotic proteins through binding of their BCL2 homology domain 3 (BH3 domain). MEB buffer (150 mM mannitol, 10 mM HEPES pH 7.5, 50 mM KCl, 20 μM EDTA, 20 μM EGTA, 5 mM potassium succinate, 0.1% protease-free BSA (SIGMA) with low dose digitonin (0.002%) permeabilizes plasma membrane while leaves live mitochondria, where MCL1 maintains its native localization and conformation. Unlike biophysical assays (e.g. TR-FRET) that use truncated recombinant MCL1 protein, this assay uses full length endogenous MCL1 protein at mitochondria outer membrane. It measures the interaction between MCL1 protein and biotinylated BIM BH3 peptide. Compounds can compete with BIM BH3 peptide to bind to MCL1 protein. This serum free assay measures the affinity between MCL1 protein and compound in permeabilized cells, therefore it is not affected by serum binding and cell permeability, and can measure the intrinsic compound affinity. […]
On the third day, ELISA plates were washed once with 250 μl 1×PBST. […] Plates were shaken for 1 minute then luminescence was measured by Envision plate reader (HP). […] IC50 was calculated using Graphic Pad PRISM software.

For `CCc1c2c(nn1C)CNS(=O)(=O)CCCn1c(C(=O)O)c(CCCOc3cccc4cc(F)ccc34)c3ccc(Cl)c-2c31`, which IC50 is on record?
Its IC50 is 7.65e-07 M.
